Measured values as given in PubChem BioAssay (Tox21).
This is a selection; strong and weak results do not stand in their true shares. Results filed as inconclusive are left out. Active and inactive are the calls of the source. Unless noted, calls come from the whole dose curve; as a rule, active = well fitted curve in the direction sought with a large enough effect in the repeat runs; inconclusive = weak or mixed curves; inactive = no such curve, though single readings can be large; an effect the other way counts as inactive or inconclusive.

By UniProt entry, the sequences of proteins in these tests, tags left out. Where a name states a change or a piece, a line headed by the entry shows the natural chain unless it says otherwise.
UniProt P19793: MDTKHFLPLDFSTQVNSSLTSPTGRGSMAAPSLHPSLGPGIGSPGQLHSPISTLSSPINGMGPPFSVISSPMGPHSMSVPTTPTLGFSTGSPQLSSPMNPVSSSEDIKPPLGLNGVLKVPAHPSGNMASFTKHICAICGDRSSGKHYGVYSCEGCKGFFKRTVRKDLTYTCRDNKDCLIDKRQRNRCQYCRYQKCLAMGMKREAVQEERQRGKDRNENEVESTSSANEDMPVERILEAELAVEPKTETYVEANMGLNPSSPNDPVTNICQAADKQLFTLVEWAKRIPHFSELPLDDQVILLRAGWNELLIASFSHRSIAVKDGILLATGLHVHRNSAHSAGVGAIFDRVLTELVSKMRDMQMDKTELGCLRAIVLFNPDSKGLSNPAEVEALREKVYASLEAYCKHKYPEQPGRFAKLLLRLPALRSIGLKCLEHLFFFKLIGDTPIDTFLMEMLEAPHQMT
UniProt P08659, whole entry, looked up: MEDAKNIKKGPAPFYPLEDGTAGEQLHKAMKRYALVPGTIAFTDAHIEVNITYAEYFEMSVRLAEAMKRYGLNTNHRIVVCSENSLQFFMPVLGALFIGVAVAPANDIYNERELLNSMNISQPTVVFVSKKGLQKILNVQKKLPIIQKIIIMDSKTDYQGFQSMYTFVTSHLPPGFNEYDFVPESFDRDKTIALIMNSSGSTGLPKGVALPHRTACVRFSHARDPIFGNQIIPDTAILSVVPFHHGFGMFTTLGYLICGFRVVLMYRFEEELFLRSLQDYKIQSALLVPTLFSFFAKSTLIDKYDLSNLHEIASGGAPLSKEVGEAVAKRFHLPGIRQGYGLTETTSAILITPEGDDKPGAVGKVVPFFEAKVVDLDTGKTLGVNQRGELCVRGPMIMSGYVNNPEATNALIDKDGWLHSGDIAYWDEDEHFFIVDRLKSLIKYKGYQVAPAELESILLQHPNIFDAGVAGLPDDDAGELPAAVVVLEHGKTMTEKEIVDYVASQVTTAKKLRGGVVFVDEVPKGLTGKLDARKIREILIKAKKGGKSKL
UniProt Q14994: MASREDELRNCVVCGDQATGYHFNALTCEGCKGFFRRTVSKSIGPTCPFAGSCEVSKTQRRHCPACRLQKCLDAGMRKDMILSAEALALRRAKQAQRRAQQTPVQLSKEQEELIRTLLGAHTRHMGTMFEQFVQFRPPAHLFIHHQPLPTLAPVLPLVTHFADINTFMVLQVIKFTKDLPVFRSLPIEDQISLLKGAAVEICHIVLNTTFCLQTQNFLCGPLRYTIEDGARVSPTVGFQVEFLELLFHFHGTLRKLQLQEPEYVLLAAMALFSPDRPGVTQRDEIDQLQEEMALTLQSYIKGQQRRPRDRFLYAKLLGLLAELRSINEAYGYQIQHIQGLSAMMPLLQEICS
UniProt P16473, whole entry, looked up: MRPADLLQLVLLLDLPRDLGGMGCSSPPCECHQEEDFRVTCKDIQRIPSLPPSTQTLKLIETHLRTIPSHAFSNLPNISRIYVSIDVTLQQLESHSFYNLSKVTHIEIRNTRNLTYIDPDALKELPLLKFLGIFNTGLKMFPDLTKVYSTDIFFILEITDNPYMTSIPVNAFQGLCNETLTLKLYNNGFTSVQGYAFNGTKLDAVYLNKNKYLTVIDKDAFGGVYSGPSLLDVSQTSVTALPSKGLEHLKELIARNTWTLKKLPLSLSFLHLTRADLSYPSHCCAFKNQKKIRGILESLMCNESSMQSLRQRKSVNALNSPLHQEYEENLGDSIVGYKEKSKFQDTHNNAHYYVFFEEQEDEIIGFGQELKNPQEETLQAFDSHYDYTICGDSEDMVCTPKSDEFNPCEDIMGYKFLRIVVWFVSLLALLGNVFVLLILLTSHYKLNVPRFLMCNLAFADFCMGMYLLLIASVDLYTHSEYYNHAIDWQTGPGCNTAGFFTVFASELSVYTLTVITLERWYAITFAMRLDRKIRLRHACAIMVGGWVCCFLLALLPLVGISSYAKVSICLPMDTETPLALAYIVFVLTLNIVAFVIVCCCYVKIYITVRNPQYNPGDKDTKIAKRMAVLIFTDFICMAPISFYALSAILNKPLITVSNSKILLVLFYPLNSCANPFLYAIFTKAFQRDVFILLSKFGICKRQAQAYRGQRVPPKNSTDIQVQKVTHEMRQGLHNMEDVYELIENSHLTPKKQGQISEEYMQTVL

What was measured:
[1] = target: Nuclear receptor ROR-gamma (Homo sapiens) (UniProt P51449); assay: qHTS assay to identify small molecule antagonists of the retinoid-related orphan receptor gamma (ROR-gamma) signaling pathway (AID 1159521;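 note: CHO cells with doxycycline inducible ROR-gamma driving an RORE luciferase reporter; top concentration of the series differs between compounds; % is set by controls: 0 for no effect and ±100 for the full control effect; nearly all actives have a fitted effect of over 50% in size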); settings: Tet-on RORgamma CHO cells, RORE-luciferase, 16 h; at 92.4 µM (top of the series)
[2] = qHTS assay to identify small molecule agonists of the AP-1 signaling pathway - cell viability counter screen (AID 1159525; calls by dose curve; note: nearly all actives have a fitted effect of over 55% in size); settings: ME-180 AP-1-bla cells viability, ATP luminescence, 5 h; at 76.8 µM (top of the series) unless noted
Outline: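 ME-180 AP-1-bla, 2500 cells/well, Opti-MEM + 0.5% dialyzed FBS; overnight 37 °C; cpd 15-pt titration, 5 h 37 °C; CellTiter-Glo 30 min RT; luminescence read; normalised to TOAB and DMSO controls.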

[3] = qHTS assay to identify small molecule agonists of the AP-1 signaling pathway (AID 1159526; calls by dose curve; note: % is set by controls: 0 for no effect and ±100 for the full control effect); settings: ME-180 (cervical carcinoma) AP-1-bla reporter, beta-lactamase FRET ratio, 5 h; at 76.8 µM (top of the series) unless noted
[4] = target: Retinoic acid receptor RXR-alpha (Homo sapiens) (UniProt P19793); assay: qHTS assay to identify small molecule agonists of the RXR signaling pathway (AID 1159527; calls by dose curve; note: % is set by controls: 0 for no effect and ±100 for the full control effect; nearly all actives have a fitted effect of over 35% in size); settings: HEK293T RXRa-UAS-bla, beta-lactamase ratio, 16 h; at 76.8 µM (top of the series)
[5] = qHTS assay to identify small molecule antagonists of the retinoic acid receptor (RAR) signaling pathway (AID 1159552; note: % is set by controls: 0 for no effect and ±100 for the full control effect; nearly all actives have a fitted effect of over 50% in size); settings: C3RL4 RARE luciferase reporter, retinol-stimulated, 6 h; at 92.4 µM (top of the series)
Outline: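 Readout: luciferase luminescence, 30 min post-reagent at RT. Setup: C3RL4 RARE reporter cells, compounds plus retinol 1 uM final, 6 hr incubation at 37 C and 5% CO2.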

[6] = qHTS assay to identify small molecule antagonists of the estrogen related receptor (ERR) signaling pathway from Tox21 library - cell viability counter screen (AID 1224834); settings: ERR reporter cells viability, CellTiter-Fluor, 17.5 h; series mostly up to 92.4 µM; note: % is set by controls: 0 for no effect and ±100 for the full control effect; nearly all actives have a fitted effect of over 30% in size
Outline: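 Fluorescence from CellTiter-Fluor gives the viability read-out, taken 30 min after reagent addition. Before that, ERR cells seeded 6 h earlier were incubated with compounds for 17.5 h at 37 C.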

[7] = target: Luciferin 4-monooxygenase (Photinus pyralis) (UniProt P08659); assay: qHTS assay to identify small molecule inhibitors of firefly luciferase (AID 1224835); note: % is set by controls: 0 for no effect and ±100 for the full control effect; nearly all actives have a fitted effect of over 25% in size; settings: purified P. pyralis luciferase, luminescence inhibition; series mostly up to 115 µM
Outline: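 Quantitative HTS format; KM concentrations of both substrates. Purified P. pyralis FLuc activity quantified from luminescence images.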

[8] = qHTS assay to identify small molecule agonists of the constitutive androstane receptor (CAR) signaling pathway - cell viability counter screen (AID 1224836); settings: HepG2-CYP2B6-hCAR viability, CellTiter-Fluor, 23 h, PK11195 added to every well; series mostly up to 92.4 µM; note: % is set by controls: 0 for no effect and ±100 for the full control effect; nearly all actives have a fitted effect of over 45% in size
Outline: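 Compound titrations (15 concentrations) went onto HepG2-CYP2B6-hCAR cells 4 h after seeding, alongside PK11195 at a final 0.75 uM; a 23 h, 37 C/5% CO2 incubation preceded CellTiter-Fluor viability measurement.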

[9] = qHTS assay to identify small molecule antagonists of the constitutive androstane receptor (CAR) signaling pathway - cell viability counter screen (AID 1224837); settings: HepG2-CYP2B6-hCAR viability, CellTiter-Fluor, 23 h, co-treated with 50 nM CITCO; series mostly up to 92.4 µM; note: % is set by controls: 0 for no effect and ±100 for the full control effect; nearly all actives have a fitted effect of over 45% in size
Outline: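 HepG2-CYP2B6-hCAR cells, 2500/well, 4 hr pre-incubation; compound titration, 15 conc.; CITCO 50 nM final; 23 hr, 37 C/5% CO2; CellTiter-Fluor, fluorescence intensity.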

[10] = target: Nuclear receptor subfamily 1 group I member 3 (Homo sapiens) (UniProt Q14994); assay: qHTS assay to identify small molecule antagonists of the constitutive androstane receptor (CAR) signaling pathway (AID 1224838); settings: HepG2-CYP2B6-hCAR luciferase, CITCO-stimulated, 24 h; series mostly up to 92.4 µM;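 note: HepG2 cells stably expressing hCAR with CYP2B6 luciferase reporter stimulated by CITCO; % is set by controls: 0 for no effect and ±100 for the full control effect; nearly all actives have a fitted effect of over 40% in size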
[11] = target: Nuclear receptor subfamily 1 group I member 3 (Homo sapiens) (UniProt Q14994); assay: qHTS assay to identify small molecule agonists of the constitutive androstane receptor (CAR) signaling pathway (AID 1224839); settings: HepG2 hCAR CYP2B6-luciferase, agonist mode, 24 h; at 92.4 µM (top of the series) unless noted;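 note: HepG2 cells stably carrying human CAR and a CYP2B6 luciferase reporter; % is set by controls: 0 for no effect and ±100 for the full control effect; nearly all actives have a fitted effect of over 15% in size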
[12] = qHTS assay to identify small molecule antagonists of the estrogen related receptor signaling pathway with the pleiotropic PPARgamma coactivator (PGC) from Tox21 10K library - cell viability counter screen (AID 1224840; active = well fitted cell-killing curve with a large enough effect in the repeat runs, not every such curve was filed as active; note: % is set by controls: 0 for no effect and ±100 for the full control effect; nearly all actives have a fitted effect of over 40% in size); settings: PGC/ERR reporter cells viability, CellTiter-Fluor, 17.5 h; at 92.4 µM (top of the series) unless noted
Outline: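 PGC/ERR cells, 2,000/well; 6 h pre-incubation 37 C/5% CO2; cpd in DMSO via pin tool; 17.5 h 37 C; CellTiter-Fluor, 30 min; fluorescence.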

[13] = qHTS assay to identify small molecule antagonists of the estrogen related receptor signaling pathway with the pleiotropic PPARgamma coactivator (PGC) from Tox21 10K library (AID 1224841; call rule not given here; note: % is set by controls: 0 for no effect and ±100 for the full control effect; actives are mostly falling curves and most rising ones were filed inactive; nearly all actives have a fitted effect of over 50% in size); settings: PGC/ERR reporter cell line, ONE-Glo luciferase, 18 h; series mostly up to 92.4 µM
[14] = qHTS assay to identify small molecule agonists of the estrogen related receptor signaling pathway with the pleiotropic PPARgamma coactivator (PGC) from Tox21 10K library (AID 1224842); settings: PGC/ERR reporter cell line, luciferase ONE-Glo, 18 h; at 92.4 µM (top of the series) unless noted; note: % is set by controls: 0 for no effect and ±100 for the full control effect; nearly all actives have a fitted effect of over 15% in size
Outline: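 PGC/ERR reporter cells (NTP line) were seeded 2,000 per well, rested 6 h at 37 C/5% CO2, then pin-dosed with compounds in DMSO for 18 h at 37 C; luciferase read by One-Glo luminescence after 30 min at room temperature.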

[15] = target: Thyrotropin receptor (Homo sapiens) (UniProt P16473); assay: qHTS assay to identify small molecule agonists of the thyroid stimulating hormone receptor (TSHR) signaling pathway (AID 1224843; calls by dose curve; note: % is set by controls: 0 for no effect and ±100 for the full control effect; nearly all actives have a fitted effect of over 45% in size); settings: TSHR-HEK293 cells, cAMP HTRF, agonist mode, 30 min; series mostly up to 92.4 µM

CC(C)CCCCCCCOP(OCCCCCCCC(C)C)Oc1ccccc1
inactive: activity change, negative = inhibition [1] -19.3% | viability change, negative = cytotoxic [2] -5.04% | activation [3] 14% | activation [4] 0.0298% | activity, negative = inhibition [5] 1.11% | Potency [6] | Potency [7] | Potency [8] | Potency [9] | Potency [10] | activation [11] 10.7% | viability change, negative = cytotoxic [12] 2.99% | Potency [13] | activation [14] -5.99%

O=P(Cl)(Oc1ccccc1)Oc1ccccc1
inactive: activity change, negative = inhibition [1] -17.2% | viability change, negative = cytotoxic [2] 0.073% | activation [3] 0.753% | Potency [6] | Potency [7] | Potency [8] | Potency [9] | Potency [10] | activation [11] 2.27% | viability change, negative = cytotoxic [12] 7.01% | Potency [15]

CN(N=O)C(=N)N[N+](=O)[O-]
inactive: activity change, negative = inhibition [1] -21.1% | viability change, negative = cytotoxic [2] -3.61% | activation [4] -7.57% | activity, negative = inhibition [5] 12.1% | Potency [6] | Potency [8] | activation [11] -8.27% | viability change, negative = cytotoxic [12] -11.1% | Potency [13] | activation [14] -11.3% | Potency [15]

CCNC(C)Cc1ccc2c(c1)OCO2 (stereo unspecified)
inactive: activity change, negative = inhibition [1] -22.8% | viability change, negative = cytotoxic [2] 1.55% | activation [4] 5.42% | activity, negative = inhibition [5] 10.8% | Potency [6] | Potency [7] | Potency [8] | Potency [9] | Potency [10] | activation [11] -1.99% | viability change, negative = cytotoxic [12] 16.5% | Potency [13] | activation [14] -1.63% | Potency [15]

O=C(Cl)OCCOC(=O)Cl
inactive: activity change, negative = inhibition [1] 11.9% | viability change, negative = cytotoxic [2] 3.84% | activation [3] -4.53% | activation [4] 0.152% | Potency [6] | Potency [8] | Potency [9] | viability change, negative = cytotoxic [12] 3.18% | activation [14] -0.716% | Potency [15]

ClP(Cl)c1ccccc1
inactive: activity change, negative = inhibition [1] -11% | viability change, negative = cytotoxic [2] 0.642% | activation [3] -3.47% | activation [4] 4.71% | activity, negative = inhibition [5] -2.25% | Potency [6] | Potency [7] | Potency [8] | Potency [9] | viability change, negative = cytotoxic [12] 8.36%

CN(C(=O)Cc1cccc2occc12)[C@H]1CC[C@@]2(CCCO2)C[C@@H]1N1CCCC1
inactive: viability change, negative = cytotoxic [2] 6.87% | activation [3] 0.903% | activity, negative = inhibition [5] -12.7% | Potency [6] | Potency [7] | Potency [8] | Potency [9] | Potency [10] | activation [11] -3.67% | viability change, negative = cytotoxic [12] -8.15% | Potency [15]
